Test results taken from PubChem BioAssay AID588852 (The Scripps Research Institute Molecular Screening Center, 2011).
The entries are a selection whose mix differs from that of the whole data set. Some of these compounds have results that are not shown, active ones among them. The source made the active and inactive calls.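 How the source made its calls: active means percent inhibition above its own plate's cutoff, namely the mean of that plate's compound wells plus 3 SD; inactive means the rest.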

The chains behind the UniProt entries cited, without tags or fusion partners.
UniProt P11229, whole entry: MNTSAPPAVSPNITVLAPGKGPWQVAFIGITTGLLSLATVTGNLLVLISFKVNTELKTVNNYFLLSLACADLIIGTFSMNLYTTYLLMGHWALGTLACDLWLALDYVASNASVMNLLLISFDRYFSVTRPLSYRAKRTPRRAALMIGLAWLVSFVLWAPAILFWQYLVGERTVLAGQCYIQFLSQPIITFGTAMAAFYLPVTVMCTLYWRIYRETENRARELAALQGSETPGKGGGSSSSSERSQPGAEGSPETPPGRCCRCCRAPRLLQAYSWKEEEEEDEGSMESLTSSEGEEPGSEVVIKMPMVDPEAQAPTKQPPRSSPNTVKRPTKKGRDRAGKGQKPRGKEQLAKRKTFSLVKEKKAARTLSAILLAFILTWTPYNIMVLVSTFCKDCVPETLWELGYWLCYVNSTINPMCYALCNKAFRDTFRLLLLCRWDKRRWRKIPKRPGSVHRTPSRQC

Each molecule was assayed against Muscarinic acetylcholine receptor M1 (Homo sapiens) (UniProt P11229) (assay: human M1 muscarinic receptor antagonists, primary screen, CHO-K1 cells, Fluo-8 calcium fluorescence, 1536-well (AID 588852;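 further: peak over basal fluorescence ratio during 140 s after agonist addition; 0% = ACh EC80 plus DMSO and 100% = DMSO alone without agonist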)). Settings: CHO-K1 hM1, Fluo-8 calcium fluorescence, ACh EC80 antagonist; at 3 µM; hits give high values.

| Structure (SMILES) | inhibition |
| --- | --- |
| O=C(NCC1(N2CCCCC2)CCCCC1)c1cccc(Cl)c1 | inactive: -23.3% |
| COc1cccc(C(=O)NCC2(N3CCCCC3)CCCCC2)c1 | inactive: -2.68% |
| COc1ccc(Cl)cc1C(=O)NCC1(N(C)C)CCCCC1 | inactive: 0.75% |
| COc1cc(C(=O)NCC2(N(C)C)CCCCC2)c([N+](=O)[O-])cc1OC | inactive: -15.5% |
| CN(C)C1(CNC(=O)c2ccc(Br)cc2)CCCCC1 | inactive: -13.4% |
| CC(C)Oc1ccc(C(=O)NCC2(N(C)C)CCCCC2)cc1 | inactive: -3.39% |
| CN(C)c1cccc(C(=O)NCC2(N(C)C)CCCCC2)c1 | inactive: 0.12% |
| COc1ccc(Br)c(C(=O)NCC2(N3CCCCC3)CCCCC2)c1 | inactive: -4.33% |
| Cc1ccc(C(=O)NCC2(N3CCCCC3)CCCCC2)cc1 | inactive: -11.5% |
| COc1cc(SC)ccc1C(=O)NCC1(N(C)C)CCCCC1 | inactive: -16.4% |
| CC(C)N1C(=O)CC2(CCN(CCOC(=O)C(O)(c3ccccc3)c3ccccc3)CC2)C1=O | inactive: -26.8% |
| O=C(NCC1(N2CCCCC2)CCCCC1)c1cc([N+](=O)[O-])ccc1Cl | inactive: -5.81% |
| COc1ccc(C(=O)NCC2(N(C)C)CCCCC2)cc1 | inactive: -9.23% |
| Cc1cc(C(=O)NCC2(N3CCCCC3)CCCCC2)ccc1[N+](=O)[O-] | inactive: -4.39% |
| O=C(NCC1(N2CCCCC2)CCCCC1)c1cccc(Br)c1 | inactive: -11.8% |
| O=C(NCC1(N2CCCCC2)CCCCC1)c1cc(F)c(F)cc1Cl | inactive: 7.21% |
| Cc1ccccc1C(=O)NCC1(N2CCCCC2)CCCCC1 | inactive: -6.32% |
| CN(C)c1ccc(C(=O)NCC2(N(C)C)CCCCC2)cc1 | inactive: -7.47% |
